In patent US20210324005A1, “Beta-Arrestin Effectors and Compositions and Methods of Use Thereof” (Trevena, Inc., priority 2020, published 2021):
pEC50: −log10 of the molar value.

Amino acid sequences for entries named in this document (tags omitted).
UniProt P25095, whole entry: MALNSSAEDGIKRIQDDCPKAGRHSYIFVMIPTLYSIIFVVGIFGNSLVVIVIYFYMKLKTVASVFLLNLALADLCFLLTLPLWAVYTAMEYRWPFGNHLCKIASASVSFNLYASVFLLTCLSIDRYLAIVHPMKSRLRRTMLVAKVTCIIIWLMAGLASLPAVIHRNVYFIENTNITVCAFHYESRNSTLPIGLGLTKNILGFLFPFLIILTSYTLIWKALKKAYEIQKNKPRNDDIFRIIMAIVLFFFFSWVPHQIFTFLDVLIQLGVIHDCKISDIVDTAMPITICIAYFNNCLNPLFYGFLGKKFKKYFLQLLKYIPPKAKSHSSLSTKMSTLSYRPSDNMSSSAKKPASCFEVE

How the values were obtained:
Type in all cases: cell-based
human AT1R = human AT1R (Homo sapiens, UniProt P30556); assay: PathHunter β-arrestin-2 recruitment assay, human AT1R; conditions: PathHunter β-arrestin HEK293 cells; inactive = EC50 greater than 10 uM; read-out: human AT1R b-arrestin2 EC50
Description: (§1) The proximal event in β-arrestin function mediated by GPCRs is recruitment to receptors following ligand binding and receptor phosphorylation by GRK's. Thus, the measure of β-arrestin recruitment was used to determine ligand efficacy for β-arrestin function.
(§2) B-arrestin-2 recruitment to the human and rat angiotensin 2 type 1 receptor (human AT1R and rat AT1aR, respectively) was measured with the PathHunter™ β-arrestin assay (DiscoveRx Corporation, Fremont Calif.). Cells, plasmid(s), and detection reagent(s) were purchased from DiscoveRx, and assays were performed per the manufacturer's instructions. Human AT1R and rat AT1aR were cloned into the pCMV-ProLink vector, verified by sequencing, and transfected into PathHunter β-arrestin HEK293 cells. Stably transfected clonal cell lines were selected with Hygromycin and G418. These clonal cell lines were used for all experiments.
(§3) For assays, 25,000 cells were seeded per well in 96-well microplates in volumes of 90 μL and allowed to grow overnight at 37° C. in 5% CO2. Peptides provided herein were dissolved in deionized water to a concentration of 1 mM. Peptides were then further diluted in assay buffer (Hank's balanced salt solution with 20 mM HEPES) to add peptide to the cells to reach final concentrations ranging from 10 μM to 1 pM. Cells were then incubated for 60 minutes at 37° C. in 5% CO2, followed by the addition of 50 μL of PathHunter Detection Reagent to each well. The microplates were then incubated at room temperature for 60 minutes, and then luminescence was measured using a NOVOstar microplate reader purchased from BMG Labtech. B-arrestin-2 recruitment to receptors was measured as relative luminescence intensity expressed in arbitrary units.

rat AT1aR [1] = molecular target: T1, rat AT1aR (Rattus norvegicus, UniProt P25095); assay: PathHunter β-arrestin-2 recruitment assay, rat AT1aR; conditions: PathHunter β-arrestin HEK293 cells; inactive = EC50 greater than 10 uM; read-out: rat AT1aR b-arrestin2 EC50
Description: as §1, §2, §3

rat AT1aR [2] = molecular target: T1, rat AT1aR; assay: IP1 accumulation assay (IP-One Tb), rat AT1aR; conditions: agonist detection, inactive = EC50 greater than 10 uM

| Structure (SMILES) | pEC50 (human AT1R) | pEC50 (rat AT1aR [1]) | pEC50 (rat AT1aR [2]) |
| --- | --- | --- | --- |
| C=CCOc1ccc(C[C@H](NC(=O)[C@@H](NC(=O)[C@H](CCCNC(=N)N)NC(=O)CNC)C(C)C)C(=O)N[C@H](C(=O)N[C@@H](Cc2c[nH]cn2)C(=O)N2CCC[C@H]2C(=O)N[C@H](C)C(=O)O)[C@@H](C)CC)cc1 [SEQ ID NO: 76, Sar-Arg-Val-JJJ-Ile-His-Pro-D-Ala-OH] | 5.80 | – | – |
| CC[C@H](C)[C@H](NC(=O)[C@@H]1CCCN1C(=O)[C@H](Cc1c[nH]cn1)NC(=O)[C@@H](NC(=O)[C@H](Cc1ccc(O)cc1)NC(=O)[C@@H](NC(=O)[C@H](CCCNC(=N)N)NC(=O)CNC)C(C)C)C(C)C)C(N)=O [SEQ ID NO: 12, Sar-Arg-Val-Tyr-Val-His-Pro-Ile-NH2] | – | 6.92 | 7.10 |
| CNCC(=O)N[C@@H](CCCNC(=N)N)C(=O)N[C@H](C(=O)NCC(=O)N[C@H](C(=O)N[C@@H](Cc1c[nH]cn1)C(=O)N1CCC[C@H]1C(=O)NCC(=O)O)C(C)C)C(C)C [SEQ ID NO: 5, Sar-Arg-Val-Gly-Val-His-Pro-Gly-OH] | 5.80 | 5.72 | – |
| CC[C@H](C)[C@H](NC(=O)[C@H](Cc1ccc(F)cc1)NC(=O)[C@@H](NC(=O)[C@H](CCCNC(=N)N)NC(=O)CNC)C(C)C)C(=O)N[C@@H](Cc1c[nH]cn1)C(=O)N1CCC[C@H]1C(=O)N[C@H](C)C(=O)O [SEQ ID NO: 70, Sar-Arg-Val-DDD-Ile-His-Pro-D-Ala-OH] | 6.80 | 7.10 | – |
| CC[C@H](C)[C@H](NC(=O)[C@H](Cc1cc(Br)c(O)c(Br)c1)NC(=O)[C@@H](NC(=O)[C@H](CCCNC(=N)N)NC(=O)CNC)C(C)C)C(=O)N[C@@H](Cc1c[nH]cn1)C(=O)N1CCC[C@H]1C(=O)N[C@H](C)C(=O)O [SEQ ID NO: 74, Sar-Arg-Val-HHH-Ile-His-Pro-D-Ala-OH] | 6.60 | – | – |
| CC[C@H](C)[C@H](NC(=O)[C@H](Cc1ccc(O)c(O)c1)NC(=O)[C@@H](NC(=O)[C@H](CCCNC(=N)N)NC(=O)CNC)C(C)C)C(=O)N[C@@H](Cc1c[nH]cn1)C(=O)N1CCC[C@H]1C(=O)N[C@H](C)C(=O)O [SEQ ID NO: 67, Sar-Arg-Val-AAA-Ile-His-Pro-D-Ala-OH] | – | 7.20 | – |
| CC[C@H](C)[C@H](NC(=O)[C@H](Cc1cc(I)c(O)c(I)c1)NC(=O)[C@@H](NC(=O)[C@H](CCCNC(=N)N)NC(=O)CNC)C(C)C)C(=O)N[C@@H](Cc1c[nH]cn1)C(=O)N1CCC[C@H]1C(=O)N[C@H](C)C(=O)O [SEQ ID NO: 85, Sar-Arg-Val-OOO-Ile-His-Pro-D-Ala-OH] | 5.80 | 6.30 | – |
| CC[C@H](C)[C@@H]1NC(=O)[C@H](Cc2ccc(O)cc2)NC(=O)[C@H](C(C)C)NC(=O)[C@H](Cc2ccccc2)NC(=O)[C@@H]2CCCN2C(=O)[C@H](Cc2c[nH]cn2)NC1=O [SEQ ID NO: 38, Cyclo(Val-Tyr-Ile-His-Pro-Phe)] | – | 5.60 | – |
| CC[C@H](C)[C@H](NC(=O)[C@@H]1CCCN1C(=O)[C@H](Cc1c[nH]cn1)NC(=O)[C@@H](NC(=O)[C@@H](NC(=O)[C@@H](NC(=O)[C@H](CCCNC(=N)N)NC(=O)CNC)C(C)C)[C@@H](C)CC)C(C)C)C(=O)O [SEQ ID NO: 3, Sar-Arg-Val-Ile-Val-His-Pro-Ile-OH] | – | 6.92 | – |
| CC[C@H](C)[C@H](NC(=O)[C@H](Cc1ccc(O)cc1)NC(=O)[C@@H](NC(=O)[C@H](CCCNC(=N)N)NC(=O)[C@H](C)NC)C(C)C)C(=O)N[C@@H](Cc1c[nH]cn1)C(=O)N1CCC[C@H]1C(=O)N[C@H](C)C(=O)O [SEQ ID NO: 44, NMAla-Arg-Val-Tyr-Ile-His-Pro-D-Ala-OH] | – | – | 8.09 |
| CC[C@H](C)[C@H](NC(=O)[C@H](Cc1cc([N+](=O)[O-])c(O)c([N+](=O)[O-])c1)NC(=O)[C@@H](NC(=O)[C@H](CCCNC(=N)N)NC(=O)CNC)C(C)C)C(=O)N[C@@H](Cc1c[nH]cn1)C(=O)N1CCC[C@H]1C(=O)N[C@H](C)C(=O)O [SEQ ID NO: 73, Sar-Arg-Val-GGG-Ile-His-Pro-D-Ala-OH] | – | – | 5.60 |
| CC[C@H](C)[C@H](NC(=O)[C@H](Cc1ccc(O)c(Cl)c1)NC(=O)[C@@H](NC(=O)[C@H](CCCNC(=N)N)NC(=O)CNC)C(C)C)C(=O)N[C@@H](Cc1c[nH]cn1)C(=O)N1CCC[C@H]1C(=O)N[C@H](C)C(=O)O [SEQ ID NO: 75, Sar-Arg-Val-III-Ile-His-Pro-D-Ala-OH] | 7.60 | 7.89 | – |
| CC[C@H](C)[C@@H]1NC(=O)[C@H](Cc2ccc(O)cc2)NC(=O)[C@H](C(C)C)NC(=O)[C@H](Cc2ccccc2)NC(=O)[C@@H]2CCCN2C(=O)[C@H](Cc2c[nH]cn2)NC(=O)[C@H]([C@@H](C)CC)NC(=O)[C@H](Cc2ccc(O)cc2)NC(=O)[C@H](C(C)C)NC(=O)[C@H](Cc2ccccc2)NC(=O)[C@@H]2CCCN2C(=O)[C@H](Cc2c[nH]cn2)NC(=O)[C@H]([C@@H](C)CC)NC(=O)[C@H](Cc2ccc(O)cc2)NC(=O)[C@H](C(C)C)NC(=O)[C@H](Cc2ccccc2)NC(=O)[C@@H]2CCCN2C(=O)[C@H](Cc2c[nH]cn2)NC1=O [SEQ ID NO: 37] | – | 5.72 | – |
| CC(C)[C@H](NC(=O)[C@H](CCCNC(=N)N)NC(=O)CN(C)C)C(=O)N[C@@H](Cc1ccc(O)cc1)C(=O)N[C@H](C(=O)N[C@@H](Cc1c[nH]cn1)C(=O)N1CCC[C@H]1C(=O)N[C@@H](C)C(=O)O)C(C)C [SEQ ID NO: 31, Me2G-Arg-Val-Tyr-Val-His-Pro-Ala-OH] | – | – | 7.89 |
| CC[C@H](C)[C@H](NC(=O)[C@H](Cc1ccc(OC)cc1)NC(=O)[C@@H](NC(=O)[C@H](CCCNC(=N)N)NC(=O)CNC)C(C)C)C(=O)N[C@@H](Cc1c[nH]cn1)C(=O)N1CCC[C@H]1C(=O)N[C@@H](C)C(=O)O [SEQ ID NO: 29, Sar-Arg-Val-OMTyr-Ile-His-Pro-Ala-OH] | – | 6.70 | – |

Second part, led by results:

| pEC50 (human AT1R) | pEC50 (rat AT1aR [1]) | Structure (SMILES) | pEC50 (rat AT1aR [2]) |
| --- | --- | --- | --- |
| – | 5.00 | CN[C@@H](CCC(=O)O)C(=O)N[C@@H](CCCNC(=N)N)C(=O)N[C@H](C(=O)N[C@@H](Cc1ccc(O)cc1)C(=O)N[C@@H](Cc1ccccc1)C(=O)N[C@@H](Cc1c[nH]cn1)C(=O)N1CCC[C@H]1C(N)=O)C(C)C [SEQ ID NO: 66, N-Me-Glu-Arg-Val-Tyr-Phe-His-Pro-NH2] | – |
| – | 6.74 | CC(C)[C@H](NC(=O)[C@H](CCCNC(=N)N)NC(=O)[C@H](N)CCC(=O)O)C(=O)N[C@@H](Cc1ccc(O)cc1)C(=O)N[C@@H](Cc1ccc(O)cc1)C(=O)N[C@@H](Cc1c[nH]cn1)C(=O)N1CCC[C@H]1C(N)=O [SEQ ID NO: 60, D-Glu-Arg-Val-Tyr-Tyr-His-Pro-NH2] | – |
| 5.92 | – | CC(C)[C@H](NC(=O)[C@H](CCCNC(=N)N)NC(=O)[C@@H](N)CCC(=O)O)C(=O)N[C@@H](Cc1ccc(O)cc1)C(=O)N[C@@H](Cc1ccccc1)C(=O)N[C@@H](Cc1c[nH]cn1)C(=O)N1CCC[C@H]1C(N)=O [SEQ ID NO: 64, Glu-Arg-Val-Tyr-Phe-His-Pro-NH2] | – |
| – | 7.20 | CNCC(=O)N[C@@H](CCCNC(=N)N)C(=O)N[C@H](C(=O)N[C@@H](Cc1ccc(O)cc1)C(=O)N[C@@H](CCCNC(=N)N)C(=O)N[C@@H](Cc1c[nH]cn1)C(=O)N1CCC[C@H]1C(=O)N[C@@H](C)C(=O)O)C(C)C [SEQ ID NO: 24, Sar-Arg-Val-Tyr-Arg-His-Pro-Ala-OH] | – |
| 8.04 | 8.09 | CNCC(=O)N[C@@H](CCCNC(=N)N)C(=O)N[C@H](C(=O)N[C@@H](Cc1ccc(O)cc1)C(=O)N[C@H](C(=O)N[C@@H](Cc1c[nH]cn1)C(=O)N1CCC[C@H]1C(=O)N[C@@H](C)C(=O)O)[C@@H](C)OC)C(C)C [SEQ ID NO: 30, Sar-Arg-Val-Tyr-OMTh-His-Pro-Ala-OH] | – |
| – | 7.80 | CNCC(=O)N[C@@H](CCCNC(=N)N)C(=O)N[C@H](C(=O)N[C@@H](Cc1ccc(O)cc1)C(=O)N[C@H](C(=O)N[C@@H](Cc1c[nH]cn1)C(=O)N1CCC[C@H]1C(=O)N[C@H](C)C(=O)O)[C@@H](C)OC)C(C)C [SEQ ID NO: 84, Sar-Arg-Val-Tyr-OMTh-His-Pro-D-Ala-OH] | – |
| – | 7.89 | CNCC(=O)N[C@@H](CCCNC(=N)N)C(=O)N[C@H](C(=O)N[C@@H](Cc1ccc(O)cc1)C(=O)N[C@@H](Cc1ccccc1)C(=O)N[C@@H](Cc1c[nH]cn1)C(=O)N1CCC[C@H]1C(=O)N[C@@H](C)C(=O)O)C(C)C [SEQ ID NO: 21, Sar-Arg-Val-Tyr-Phe-His-Pro-Ala-OH] | – |
| 7.60 | 7.49 | CC[C@H](C)[C@H](NC(=O)[C@H](Cc1ccc(O)cc1)NC(=O)[C@@H](NC(=O)[C@H](CCCNC(=N)N)NC(=O)[C@H](C)NC)C(C)C)C(=O)N[C@@H](Cc1c[nH]cn1)C(=O)N1CCC[C@H]1C(=O)N[C@@H](C)C(=O)O [SEQ ID NO: 34] | – |
